The series in a line: Pharmacokinetic studies: serum levels and absolute bioavailability after intratracheal instillation in rats. The conditions noted are these: 40 μg insulin intratracheal, compared to IV 10 μg, mean±SEM.

From patent US20050008633A1, “Chemical and physical modulators of bioavailability of inhaled compositions” (Advanced Inhalation Research Inc., priority 2003, published 2005) come the findings set out here.

insulin showed a bioavailability of insulin (rats given Cl2MDP liposomes 1 day before) of 8.7±2.9%, a bioavailability of insulin (rats given PBS liposomes 1 day before) of 13.3±3.4% and a bioavailability of insulin (untreated rats) of 3.1±0.7%.
